Assay: Stability of sodium picosulfate in solution alone, with polyethylene glycol 4000 or with sorbitol (content by HPLC, British Pharmacopoeia)
Type: physicochemical
Details: accelerated condition (40° C., 75%RH)
Experimental: 0.01 g of sodium picosulfate, 150 g of polyethylene glycol 4000, and 54.6 g of sorbitol were dissolved with heat in purified water according to the following tables and the total volume was 300 ml. The solution was stored at room temperature, in accelerated condition (40° C., 75%RH), and stress condition (60° C., 75%RH). The content of sodium picosulfate was evaluated. The content of sodium picosulfate was determined by ‘Sodium picosulfate’ test method of British Pharmacopoeia using high performance liquid chromatography.

Content (%) of sodium picosulfate, After 2 weeks Accelerated condition: 103.6%
Structure (SMILES): O=S(=O)(O)Oc1ccc(C(c2ccc(OS(=O)(=O)O)cc2)c2ccccn2)cc1 [sodium picosulfate]

— patent US20190000976A1, “Purgative Composition” (CTC BIO, INC., priority 2016, published 2019)
